Results reported in patent US20100204182A1, “ECTONUCLEOTIDASE INHIBITORS” (RHEINISCHE FRIEDRICH-WILHELMS-UNIVERSITAT BONN, priority 2006, published 2010).

Chains of the proteins cited; added tags and fusions are not shown.
UniProt Q93086, whole entry, species assumed: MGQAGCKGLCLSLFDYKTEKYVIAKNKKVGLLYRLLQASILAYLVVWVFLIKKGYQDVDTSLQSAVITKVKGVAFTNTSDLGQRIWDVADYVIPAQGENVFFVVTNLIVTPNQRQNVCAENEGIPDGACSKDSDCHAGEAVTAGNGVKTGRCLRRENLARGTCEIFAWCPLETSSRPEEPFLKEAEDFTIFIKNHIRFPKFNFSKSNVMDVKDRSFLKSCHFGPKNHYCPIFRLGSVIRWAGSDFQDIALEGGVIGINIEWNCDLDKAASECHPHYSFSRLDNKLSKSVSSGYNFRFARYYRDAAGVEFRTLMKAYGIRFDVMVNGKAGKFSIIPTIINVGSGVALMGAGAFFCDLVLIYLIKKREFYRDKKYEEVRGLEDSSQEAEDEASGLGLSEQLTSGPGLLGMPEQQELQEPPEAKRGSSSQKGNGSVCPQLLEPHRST

Key:
rat NTPDase2 = target: T1, rat NTPDase2 (Rattus norvegicus, UniProt O35795); assay: Rat NTPDase2 inhibition, in-capillary electrophoresis method (standard compounds); format: biochemical; details: read-out: NTPDase2 Ki ± SEM
T1 sequence (O35795 1-495): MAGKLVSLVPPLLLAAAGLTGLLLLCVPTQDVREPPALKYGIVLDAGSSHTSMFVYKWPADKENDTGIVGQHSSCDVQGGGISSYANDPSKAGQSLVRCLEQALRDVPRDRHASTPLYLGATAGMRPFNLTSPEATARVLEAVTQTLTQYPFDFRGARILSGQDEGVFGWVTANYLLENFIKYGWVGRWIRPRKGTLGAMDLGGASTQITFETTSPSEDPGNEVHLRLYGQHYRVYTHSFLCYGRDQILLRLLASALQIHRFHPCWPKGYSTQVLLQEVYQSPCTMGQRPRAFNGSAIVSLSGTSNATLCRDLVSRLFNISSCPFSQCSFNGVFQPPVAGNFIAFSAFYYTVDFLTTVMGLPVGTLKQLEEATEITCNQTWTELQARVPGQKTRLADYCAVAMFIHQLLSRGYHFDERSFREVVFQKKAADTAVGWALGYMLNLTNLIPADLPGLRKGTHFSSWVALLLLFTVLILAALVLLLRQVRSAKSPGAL

P2X3 = target: T2, P2X3 (Homo sapiens, UniProt P56373); details: standard inhibitors; reference mark 15; read-out: P2X3 Ki ± SEM; cited from earlier work
T2 sequence (P56373 1-397): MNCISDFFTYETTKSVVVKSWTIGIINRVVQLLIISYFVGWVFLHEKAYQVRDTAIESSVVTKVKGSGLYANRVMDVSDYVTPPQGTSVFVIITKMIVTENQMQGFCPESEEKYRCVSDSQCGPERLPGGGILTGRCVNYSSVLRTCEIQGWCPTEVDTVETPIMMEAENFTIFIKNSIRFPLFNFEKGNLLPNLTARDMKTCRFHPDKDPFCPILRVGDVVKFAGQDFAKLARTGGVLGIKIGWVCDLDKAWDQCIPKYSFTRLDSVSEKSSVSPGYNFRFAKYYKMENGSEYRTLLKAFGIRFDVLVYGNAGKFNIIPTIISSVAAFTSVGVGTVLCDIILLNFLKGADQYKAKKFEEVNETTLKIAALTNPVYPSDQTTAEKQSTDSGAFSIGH

P2X2 = target: T3, P2X2 (Homo sapiens, UniProt Q9UBL9); details: standard inhibitors; reference mark 15; read-out: P2X2 Ki ± SEM; cited from earlier work
T3 sequence (Q9UBL9 1-471): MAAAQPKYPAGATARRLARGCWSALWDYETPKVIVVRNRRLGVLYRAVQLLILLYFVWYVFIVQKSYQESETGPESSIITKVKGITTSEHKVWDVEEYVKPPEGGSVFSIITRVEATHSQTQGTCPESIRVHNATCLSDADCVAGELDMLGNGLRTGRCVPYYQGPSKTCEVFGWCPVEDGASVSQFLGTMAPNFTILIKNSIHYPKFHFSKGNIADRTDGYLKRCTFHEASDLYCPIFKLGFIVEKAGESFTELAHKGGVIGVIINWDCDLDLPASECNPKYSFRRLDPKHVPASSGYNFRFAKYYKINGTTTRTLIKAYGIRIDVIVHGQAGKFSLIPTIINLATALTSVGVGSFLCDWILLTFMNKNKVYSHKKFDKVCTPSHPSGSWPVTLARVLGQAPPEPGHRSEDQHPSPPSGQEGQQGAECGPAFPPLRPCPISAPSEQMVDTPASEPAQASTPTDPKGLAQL

P2X5 = P2X5 (Homo sapiens, UniProt Q93086); details: standard inhibitors; reference mark 15; read-out: P2X5 Ki ± SEM; cited from earlier work

Row | SMILES | Ki (rat NTPDase2) [µM] | Ki (P2X3) [nM] | Ki (P2X2) [nM] | Ki (P2X5) [nM]
1 | Nc1c(S(=O)(=O)O)cc(Nc2ccc(Nc3nc(Cl)nc(Nc4cccc(S(=O)(=O)O)c4)n3)c(S(=O)(=O)O)c2)c2c1C(=O)c1ccccc1C2=O [RB2, reactive blue 2] | 24.2 ± 0.06 | – | – | –
2 | Cc1nc(N=Nc2ccc(S(=O)(=O)O)cc2S(=O)(=O)O)c(COP(=O)(O)O)c(C=O)c1O [PPADS, pyridoxalphosphate-6-azophenyl-2′,4′-disulfonic acid] | – | 200 | 1600 | 200
